Broadly, the Ki is a dissociation constant, usually derived from enzyme kinetics or from competition with a known ligand.

Sequences of proteins named here, by UniProt entry; tags and fusion partners are left off. A change or cut given only in a name is not applied to a line headed by its entry.
UniProt Q12809: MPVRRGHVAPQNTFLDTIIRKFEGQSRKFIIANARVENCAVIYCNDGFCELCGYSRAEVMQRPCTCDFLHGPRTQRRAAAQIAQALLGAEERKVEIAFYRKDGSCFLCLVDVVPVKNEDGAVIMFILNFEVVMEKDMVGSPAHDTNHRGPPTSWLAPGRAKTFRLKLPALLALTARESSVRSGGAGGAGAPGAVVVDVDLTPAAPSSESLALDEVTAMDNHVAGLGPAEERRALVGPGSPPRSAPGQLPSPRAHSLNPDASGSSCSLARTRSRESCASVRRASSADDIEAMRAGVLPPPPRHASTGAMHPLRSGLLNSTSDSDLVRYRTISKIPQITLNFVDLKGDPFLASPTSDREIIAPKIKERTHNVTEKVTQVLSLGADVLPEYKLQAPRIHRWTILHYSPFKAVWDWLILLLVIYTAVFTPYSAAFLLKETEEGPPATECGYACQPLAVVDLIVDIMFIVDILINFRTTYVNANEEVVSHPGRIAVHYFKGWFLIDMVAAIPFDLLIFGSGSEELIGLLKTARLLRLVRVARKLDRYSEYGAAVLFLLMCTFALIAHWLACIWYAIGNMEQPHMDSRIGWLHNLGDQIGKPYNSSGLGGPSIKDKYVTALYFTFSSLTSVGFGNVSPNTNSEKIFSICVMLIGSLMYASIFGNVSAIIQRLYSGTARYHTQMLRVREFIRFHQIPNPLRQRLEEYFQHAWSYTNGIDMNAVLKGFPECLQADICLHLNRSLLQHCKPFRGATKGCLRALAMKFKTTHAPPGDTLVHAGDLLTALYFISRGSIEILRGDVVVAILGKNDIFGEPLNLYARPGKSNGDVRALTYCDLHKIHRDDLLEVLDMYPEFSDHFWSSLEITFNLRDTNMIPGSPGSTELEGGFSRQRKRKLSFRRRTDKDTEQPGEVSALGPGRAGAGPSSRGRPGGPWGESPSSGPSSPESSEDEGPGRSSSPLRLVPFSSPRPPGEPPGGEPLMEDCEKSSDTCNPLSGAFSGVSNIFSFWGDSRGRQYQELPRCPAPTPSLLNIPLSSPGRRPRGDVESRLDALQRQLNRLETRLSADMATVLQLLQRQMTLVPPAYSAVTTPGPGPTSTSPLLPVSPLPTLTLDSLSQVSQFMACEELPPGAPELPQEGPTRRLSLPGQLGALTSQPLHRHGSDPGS

This is an account of results in ChEMBL document CHEMBL3098117, “Identification and optimization of an aminoalcohol-carbazole series with antimalarial properties” (ACS Med Chem Lett, 2013).

Molecules are shown by their SMILES.

In this assay the target is Voltage-gated inwardly rectifying potassium channel KCNH2 (Homo sapiens, UniProt Q12809). The assay can be described thus: Inhibition of human ERG expressed in CHO cells. The class given is cell-based.

`O[C@@H](c1cc(C(F)(F)F)nc2c(C(F)(F)F)cccc12)[C@H]1CCCCN1` (relative stereo) [(S,R)-MEFLOQUINE] came in with an inhibition constant Ki of 1900 nM.
